# Measured affinities in a library of Ab-14 heavy chain variants

Source: Engelhart et al. 2022 (doi:10.1038/s41597-022-01779-4), MIT Lincoln Laboratory and A-Alpha Bio; data file from the FLAb repository.

Antigen: PDVDLGDISGINAS, a 14-residue peptide of the SARS-CoV-2 spike HR2 region.

Parent scFv Ab-14: VH joined to VL by a (GGGGS)3 linker. Changes lie in the heavy chain CDRs alone.
VH: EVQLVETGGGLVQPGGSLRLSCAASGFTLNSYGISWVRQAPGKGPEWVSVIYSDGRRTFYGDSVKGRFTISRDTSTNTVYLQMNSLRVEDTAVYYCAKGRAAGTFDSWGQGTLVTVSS
VL: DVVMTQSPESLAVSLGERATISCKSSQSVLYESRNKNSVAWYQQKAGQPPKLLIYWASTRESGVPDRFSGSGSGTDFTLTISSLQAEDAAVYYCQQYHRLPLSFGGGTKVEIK

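AAYL49 was designed without a model: most single CDR substitutions and a random sample of double and triple ones. The scFvs were displayed on barcoded MATa yeast, the peptide on MATalpha yeast. Binding brings cells together so that they mate, and sequencing counts the barcode pairs among the diploids. Scores were corrected for input abundance and mapped to Kd with protein pairs of known affinity run in the same pool. Mating was done three times.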

Variants are written as CDR1, CDR2 and CDR3 of the heavy chain (limits as in the source). Parent: GFTLNSYGIS, VIYSDGRRTFYGDSVK, GRAAGTFDS.
Scale: log10 of Kd in nM, estimated from mating counts; low values are strong binders.
Where no diploid with the target was found in that replicate, the entry reads "nd": below detection, most likely a poor binder, though not proof of it.
In this assay the parent's reference entry averaged 0.65; its copy inside this library read 4.11 (one replicate of three).

CDR-H1	CDR-H2	CDR-H3	replicates, log10 nM	signal with controls
GFTLNSYGIS	VIYSDPRRTFFGDSVK	GRAARTFDS	nd / nd / nd	0 of 9
GFTLNSYGIS	TIYSDGRYTFYGDSVK	GRAARTFDS	nd / 4.96 / 5.61	2 of 9 (3.80)
GFTLNLYGIS	VVYSDGRRTFYGDSVK	GRAAGTFNS	nd / nd / nd	0 of 9
GFTLNSMGIS	VPYSDGRRTFYGDSVK	TRAAGTFDS	3.42 / nd / nd	1 of 9 (3.76)
GYTLNSSGIS	VIYSDGRRTFYGDSVK	GRAAGTFDS	nd / nd / nd	1 of 9 (3.99)
GFTLNTYGIS	VISSDRRRTFYGDSVK	GRAAGTFDS	nd / 5.29 / nd	2 of 9 (4.16)
GFTLNSYGIS	VIYSDGFRTFYGDSVK	GRAAGTFDK	nd / 2.79 / 2.03	0 of 9
GFTLNSYGIS	VLYQDGRRTFYGDYVK	GRAAGTFDS	nd / nd / 4.63	0 of 9
GFTLNSYGIF	VINSDGRRTFYGDSVK	GRAAHTFDS	4.47 / 5.06 / nd	3 of 9 (4.04)
GFTLNSYGIS	VIYSDGRRTFYGDSVK	GRGAGWVDS	0.71 / 0.86 / 0.67	0 of 9
GFTLNSYGIS	VIYVDDRRTFYGDSVK	GRAAGTFDS	nd / nd / nd	0 of 9
GFTLNSYGIS	VIYSRGRRTFYGDSVW	GRAAGTFYS	nd / nd / nd	0 of 9
GFTLNSYGIS	VIYQDGRRTFYGDSVK	KRAAGTVDS	4.23 / nd / nd	0 of 9
GFTLNSYGIS	VIYSDGRRLKYGDSWK	GRAAGTFDS	nd / nd / nd	0 of 9
GFTLNSYGIS	VIYSDGRRTFYGDSVR	GRAAGTHDS	nd / nd / nd	0 of 9
GFTLNSYYIS	VIYSDGRRTFQGDSVK	GRAAGTFMS	nd / nd / nd	0 of 9
GFTLNSYGIS	VIYSDLRRTFYGQSVK	GRNAGTFDS	nd / nd / nd	0 of 9
GFFLNSYGIS	VIYSFGRRTFCGDSVK	GRAAGTFDS	nd / nd / nd	0 of 9
GFTLNSYGIS	VIYSDPRRTFYGDFVK	GRATGTFDS	6.24 / nd / nd	5 of 9 (4.16)
GDTLNSYGIS	VIYSDGRATFNGDSVK	GRAAGTFDS	nd / 3.81 / nd	2 of 9 (2.23)
GFTLNTYGIK	VIYSDGRRTFYGDSVK	GRAAGTRDS	nd / 2.54 / nd	0 of 9
GFTLNSYGIS	VIYSDGRNTFYEDIVK	GRAAGTFDS	5.01 / nd / 4.85	4 of 9 (4.78)
GFTLNSYGIG	VIYSDGARTHYGDSVK	GRAAGTFDS	nd / nd / nd	1 of 9 (3.38)
GFTANSYGIS	VIYSDGRRVFYGDSVK	GRAAGTFNS	nd / 3.11 / 3.77	2 of 9 (4.41)
GFTPCSYDIS	VIYSDGRRTFYGDSVK	GRAAGTFDS	nd / nd / nd	0 of 9
GFTLNSYGID	VIYSDGWRTFYGDSDK	GRAAGTFDS	nd / nd / 4.35	1 of 9 (4.36)
GFTLNSYGIS	VIYSAGTRTFYGDSVK	RRAAGTFDS	nd / nd / nd	0 of 9
FFTLNSYGIS	VIYSDGRMTFYGDSVK	GRMAGTFDS	3.20 / nd / nd	0 of 9
GFTLNSYGIS	VIYPDGFRTFYGDSVK	GRAAVTFDS	2.23 / 2.41 / 2.63	0 of 9
GFTLNSYGIS	VIYSDGRRTFYGDSEK	GRAAETFVS	nd / 4.70 / nd	3 of 9 (4.67)
GFTLNSYSIS	LIYSDGRRTFYGDSVK	GRAAGHFDS	nd / nd / nd	2 of 9 (3.22)
GFTLNSSIIS	VIYSDGRRTFYGDSVQ	GRAAGTFDS	nd / nd / 2.63	2 of 9 (3.97)
GFTLNSYGIS	VIKSDERRTFYGDSVK	GRAAKTFDS	nd / 5.37 / nd	3 of 9 (4.01)
GFTLNSYGIW	VIYKDGRRTFYGDSVK	GRAAGTFYS	nd / nd / nd	2 of 9 (3.72)
GFTLNSYGIS	VIYYEGMRTFYGDSVK	GRAAGTFDS	4.21 / 3.63 / nd	2 of 9 (4.25)
GFTLNSYGIS	VIYSDGPRHFYGDSVK	GRAAGTFDS	3.24 / 5.21 / 4.59	2 of 9 (4.04)
GFTINSYLIS	VIYSDGYRTFYGDSVK	GRAAGTFDS	nd / nd / nd	0 of 9
GFTANSYGIN	VIYSRGRRTFYGDSVK	GRAAGTFDS	4.20 / nd / nd	2 of 9 (4.00)

The opening 5 entries, copied out:

CDR-H1	CDR-H2	CDR-H3	replicates, log10 nM	signal with controls
GFTLNSYGIS	VIYSDPRRTFFGDSVK	GRAARTFDS	nd / nd / nd	0 of 9
GFTLNSYGIS	TIYSDGRYTFYGDSVK	GRAARTFDS	nd / 4.96 / 5.61	2 of 9 (3.80)
GFTLNLYGIS	VVYSDGRRTFYGDSVK	GRAAGTFNS	nd / nd / nd	0 of 9
GFTLNSMGIS	VPYSDGRRTFYGDSVK	TRAAGTFDS	3.42 / nd / nd	1 of 9 (3.76)
GYTLNSSGIS	VIYSDGRRTFYGDSVK	GRAAGTFDS	nd / nd / nd	1 of 9 (3.99)

Empty control strains, which show no peptide, gave a signal in 15% of pairings with library AAYL49; the median was 4.06 and 95% of these signals were weaker than 2.83. No background was subtracted. Also given: how often the same scFv was detected with the empty control strains, with their mean in brackets.